Laboratory results reported in publication PMC12915296 (Journal of medicinal chemistry, 2025).
pEC50: −log10 of the molar value.

By UniProt entry, the sequences of proteins in these tests, tags left out.
UniProt P34972, whole entry: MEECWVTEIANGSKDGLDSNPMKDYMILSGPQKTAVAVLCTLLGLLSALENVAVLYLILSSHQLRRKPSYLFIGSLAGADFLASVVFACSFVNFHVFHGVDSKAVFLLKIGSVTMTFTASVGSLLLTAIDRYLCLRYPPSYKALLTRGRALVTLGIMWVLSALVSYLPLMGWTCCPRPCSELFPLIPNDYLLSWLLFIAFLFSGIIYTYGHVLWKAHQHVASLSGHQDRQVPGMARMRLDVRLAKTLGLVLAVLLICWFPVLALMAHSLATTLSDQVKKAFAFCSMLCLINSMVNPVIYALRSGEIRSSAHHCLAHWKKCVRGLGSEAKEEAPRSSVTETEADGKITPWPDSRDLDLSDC

What was measured:
hCB2 receptor [1] = target: T1, hCB2 receptor (Homo sapiens, UniProt P34972); assay: β-arrestin 2 recruitment assay; type: cell-based
hCB2 receptor [2] = target: T1, hCB2 receptor; assay: Inhibition of forskolin-stimulated cAMP accumulation, 3xHA-hCB2-CHO cells; type: cell-based

CCCCC/C=C\C/C=C\C/C=C\C/C=C\CCCC(=O)NCCO [AEA, N-arachidonoylethanolamide]
pEC50 (hCB2 receptor [1]): 7.04 | pEC50 (hCB2 receptor [2]): 6.49
